From PubChem BioAssay (NCI)
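Five concentrations, 48 hours, 96-well plates. At the GI50, growth is halved. TGI is the concentration that stops growth completely.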

Key:
Assay in all cases: NCI tumour cell line growth inhibition, 48 h
MOLT-4 leukemia = tested on: MOLT-4 leukemia
NCI-H226 lung = tested on: NCI-H226 lung
NCI-H23 lung = tested on: NCI-H23 lung
NCI-H322M lung = tested on: NCI-H322M lung
NCI-H460 lung = tested on: NCI-H460 lung
NCI-H522 lung = tested on: NCI-H522 lung
NCI/ADR-RES ovarian = tested on: NCI/ADR-RES ovarian
OVCAR-3 ovarian = tested on: OVCAR-3 ovarian
OVCAR-4 ovarian = tested on: OVCAR-4 ovarian
OVCAR-5 ovarian = tested on: OVCAR-5 ovarian
OVCAR-8 ovarian = tested on: OVCAR-8 ovarian
PC-3 prostate = tested on: PC-3 prostate
RPMI-8226 leukemia = tested on: RPMI-8226 leukemia
RXF 393 renal = tested on: RXF 393 renal
SF-268 CNS = tested on: SF-268 CNS
SF-295 CNS = tested on: SF-295 CNS
SF-539 CNS = tested on: SF-539 CNS
SK-MEL-2 melanoma = tested on: SK-MEL-2 melanoma
SK-MEL-28 melanoma = tested on: SK-MEL-28 melanoma
SK-MEL-5 melanoma = tested on: SK-MEL-5 melanoma
SK-OV-3 ovarian = tested on: SK-OV-3 ovarian
SN12C renal = tested on: SN12C renal
SNB-19 CNS = tested on: SNB-19 CNS
SNB-75 CNS = tested on: SNB-75 CNS
SNB-78 CNS = tested on: SNB-78 CNS
SR leukemia = tested on: SR leukemia
SW-620 colon = tested on: SW-620 colon
T-47D breast = tested on: T-47D breast
TK-10 renal = tested on: TK-10 renal
U251 CNS = tested on: U251 CNS
UACC-257 melanoma = tested on: UACC-257 melanoma
UACC-62 melanoma = tested on: UACC-62 melanoma
UO-31 renal = tested on: UO-31 renal
XF 498 CNS = tested on: XF 498 CNS

C[C@@H]1CCOC(=O)/C=C/C=C\C(=O)O[C@@H]2C[C@H]3O[C@@H]4[C@@H]5OC5(C)CCC4(COC(=O)[C@H]1O)[C@]2(C)[C@@]31CO1 (stereo partly specified)
TGI (MOLT-4 leukemia): 278 nM
GI50 (NCI-H226 lung): 113 nM
TGI (NCI-H226 lung): 150 nM
GI50 (NCI-H23 lung): 62.4 nM
TGI (NCI-H23 lung): 73.5 nM
GI50 (NCI-H322M lung): 131 nM
TGI (NCI-H322M lung): 1020 nM
GI50 (NCI-H460 lung): 32.7 nM
TGI (NCI-H460 lung): 55.8 nM
GI50 (NCI-H522 lung): 54.6 nM
TGI (NCI-H522 lung): 91.2 nM
TGI (NCI/ADR-RES ovarian): 28.3 µM
GI50 (OVCAR-3 ovarian): 43 nM
TGI (OVCAR-3 ovarian): 74.8 nM
GI50 (OVCAR-4 ovarian): 114 nM
TGI (OVCAR-4 ovarian): 151 nM
GI50 (OVCAR-5 ovarian): 49.7 nM
TGI (OVCAR-5 ovarian): 173 nM
GI50 (OVCAR-8 ovarian): 107 nM
TGI (OVCAR-8 ovarian): 135 nM
GI50 (PC-3 prostate): 345 nM
TGI (PC-3 prostate): 494 nM
GI50 (RPMI-8226 leukemia): 141 nM
TGI (RPMI-8226 leukemia): 372 nM
GI50 (RXF 393 renal): < 10 nM
TGI (RXF 393 renal): < 10 nM
GI50 (SF-268 CNS): 102 nM
TGI (SF-268 CNS): 190 nM
GI50 (SF-295 CNS): 183 nM
TGI (SF-295 CNS): 666 nM
GI50 (SF-539 CNS): 118 nM
TGI (SF-539 CNS): 148 nM
GI50 (SK-MEL-2 melanoma): 106 nM
TGI (SK-MEL-2 melanoma): 139 nM
GI50 (SK-MEL-28 melanoma): < 10 nM
TGI (SK-MEL-28 melanoma): < 10 nM
GI50 (SK-MEL-5 melanoma): 58.2 nM
TGI (SK-MEL-5 melanoma): 69.7 nM
GI50 (SK-OV-3 ovarian): < 10 nM
TGI (SK-OV-3 ovarian): < 10 nM
GI50 (SN12C renal): 37.5 nM
TGI (SN12C renal): 169 nM
GI50 (SNB-19 CNS): 56.3 nM
TGI (SNB-19 CNS): 69 nM
GI50 (SNB-75 CNS): 40.6 nM
TGI (SNB-75 CNS): 55.8 nM
GI50 (SNB-78 CNS): < 10 nM
TGI (SNB-78 CNS): 17.1 nM
GI50 (SR leukemia): 39.7 nM
TGI (SR leukemia): 513 nM
GI50 (SW-620 colon): 50.8 nM
TGI (SW-620 colon): 891 nM
GI50 (T-47D breast): 338 nM
TGI (T-47D breast): 526 nM
GI50 (TK-10 renal): 35.4 nM
TGI (TK-10 renal): 170 nM
GI50 (U251 CNS): 84.5 nM
TGI (U251 CNS): 125 nM
GI50 (UACC-257 melanoma): 62.5 nM
TGI (UACC-257 melanoma): 274 nM
GI50 (UACC-62 melanoma): < 10 nM
TGI (UACC-62 melanoma): < 10 nM
GI50 (UO-31 renal): 58.3 nM
TGI (UO-31 renal): 88.9 nM
GI50 (XF 498 CNS): < 10 nM
TGI (XF 498 CNS): < 10 nM
